The text below walks through data of PubChem BioAssay AID1671202 (University of Kansas High Throughput Screening Laboratory, 2021).

Chains of the proteins cited; added tags and fusions are not shown.
UniProt P42858, whole entry, looked up, stated change not applied: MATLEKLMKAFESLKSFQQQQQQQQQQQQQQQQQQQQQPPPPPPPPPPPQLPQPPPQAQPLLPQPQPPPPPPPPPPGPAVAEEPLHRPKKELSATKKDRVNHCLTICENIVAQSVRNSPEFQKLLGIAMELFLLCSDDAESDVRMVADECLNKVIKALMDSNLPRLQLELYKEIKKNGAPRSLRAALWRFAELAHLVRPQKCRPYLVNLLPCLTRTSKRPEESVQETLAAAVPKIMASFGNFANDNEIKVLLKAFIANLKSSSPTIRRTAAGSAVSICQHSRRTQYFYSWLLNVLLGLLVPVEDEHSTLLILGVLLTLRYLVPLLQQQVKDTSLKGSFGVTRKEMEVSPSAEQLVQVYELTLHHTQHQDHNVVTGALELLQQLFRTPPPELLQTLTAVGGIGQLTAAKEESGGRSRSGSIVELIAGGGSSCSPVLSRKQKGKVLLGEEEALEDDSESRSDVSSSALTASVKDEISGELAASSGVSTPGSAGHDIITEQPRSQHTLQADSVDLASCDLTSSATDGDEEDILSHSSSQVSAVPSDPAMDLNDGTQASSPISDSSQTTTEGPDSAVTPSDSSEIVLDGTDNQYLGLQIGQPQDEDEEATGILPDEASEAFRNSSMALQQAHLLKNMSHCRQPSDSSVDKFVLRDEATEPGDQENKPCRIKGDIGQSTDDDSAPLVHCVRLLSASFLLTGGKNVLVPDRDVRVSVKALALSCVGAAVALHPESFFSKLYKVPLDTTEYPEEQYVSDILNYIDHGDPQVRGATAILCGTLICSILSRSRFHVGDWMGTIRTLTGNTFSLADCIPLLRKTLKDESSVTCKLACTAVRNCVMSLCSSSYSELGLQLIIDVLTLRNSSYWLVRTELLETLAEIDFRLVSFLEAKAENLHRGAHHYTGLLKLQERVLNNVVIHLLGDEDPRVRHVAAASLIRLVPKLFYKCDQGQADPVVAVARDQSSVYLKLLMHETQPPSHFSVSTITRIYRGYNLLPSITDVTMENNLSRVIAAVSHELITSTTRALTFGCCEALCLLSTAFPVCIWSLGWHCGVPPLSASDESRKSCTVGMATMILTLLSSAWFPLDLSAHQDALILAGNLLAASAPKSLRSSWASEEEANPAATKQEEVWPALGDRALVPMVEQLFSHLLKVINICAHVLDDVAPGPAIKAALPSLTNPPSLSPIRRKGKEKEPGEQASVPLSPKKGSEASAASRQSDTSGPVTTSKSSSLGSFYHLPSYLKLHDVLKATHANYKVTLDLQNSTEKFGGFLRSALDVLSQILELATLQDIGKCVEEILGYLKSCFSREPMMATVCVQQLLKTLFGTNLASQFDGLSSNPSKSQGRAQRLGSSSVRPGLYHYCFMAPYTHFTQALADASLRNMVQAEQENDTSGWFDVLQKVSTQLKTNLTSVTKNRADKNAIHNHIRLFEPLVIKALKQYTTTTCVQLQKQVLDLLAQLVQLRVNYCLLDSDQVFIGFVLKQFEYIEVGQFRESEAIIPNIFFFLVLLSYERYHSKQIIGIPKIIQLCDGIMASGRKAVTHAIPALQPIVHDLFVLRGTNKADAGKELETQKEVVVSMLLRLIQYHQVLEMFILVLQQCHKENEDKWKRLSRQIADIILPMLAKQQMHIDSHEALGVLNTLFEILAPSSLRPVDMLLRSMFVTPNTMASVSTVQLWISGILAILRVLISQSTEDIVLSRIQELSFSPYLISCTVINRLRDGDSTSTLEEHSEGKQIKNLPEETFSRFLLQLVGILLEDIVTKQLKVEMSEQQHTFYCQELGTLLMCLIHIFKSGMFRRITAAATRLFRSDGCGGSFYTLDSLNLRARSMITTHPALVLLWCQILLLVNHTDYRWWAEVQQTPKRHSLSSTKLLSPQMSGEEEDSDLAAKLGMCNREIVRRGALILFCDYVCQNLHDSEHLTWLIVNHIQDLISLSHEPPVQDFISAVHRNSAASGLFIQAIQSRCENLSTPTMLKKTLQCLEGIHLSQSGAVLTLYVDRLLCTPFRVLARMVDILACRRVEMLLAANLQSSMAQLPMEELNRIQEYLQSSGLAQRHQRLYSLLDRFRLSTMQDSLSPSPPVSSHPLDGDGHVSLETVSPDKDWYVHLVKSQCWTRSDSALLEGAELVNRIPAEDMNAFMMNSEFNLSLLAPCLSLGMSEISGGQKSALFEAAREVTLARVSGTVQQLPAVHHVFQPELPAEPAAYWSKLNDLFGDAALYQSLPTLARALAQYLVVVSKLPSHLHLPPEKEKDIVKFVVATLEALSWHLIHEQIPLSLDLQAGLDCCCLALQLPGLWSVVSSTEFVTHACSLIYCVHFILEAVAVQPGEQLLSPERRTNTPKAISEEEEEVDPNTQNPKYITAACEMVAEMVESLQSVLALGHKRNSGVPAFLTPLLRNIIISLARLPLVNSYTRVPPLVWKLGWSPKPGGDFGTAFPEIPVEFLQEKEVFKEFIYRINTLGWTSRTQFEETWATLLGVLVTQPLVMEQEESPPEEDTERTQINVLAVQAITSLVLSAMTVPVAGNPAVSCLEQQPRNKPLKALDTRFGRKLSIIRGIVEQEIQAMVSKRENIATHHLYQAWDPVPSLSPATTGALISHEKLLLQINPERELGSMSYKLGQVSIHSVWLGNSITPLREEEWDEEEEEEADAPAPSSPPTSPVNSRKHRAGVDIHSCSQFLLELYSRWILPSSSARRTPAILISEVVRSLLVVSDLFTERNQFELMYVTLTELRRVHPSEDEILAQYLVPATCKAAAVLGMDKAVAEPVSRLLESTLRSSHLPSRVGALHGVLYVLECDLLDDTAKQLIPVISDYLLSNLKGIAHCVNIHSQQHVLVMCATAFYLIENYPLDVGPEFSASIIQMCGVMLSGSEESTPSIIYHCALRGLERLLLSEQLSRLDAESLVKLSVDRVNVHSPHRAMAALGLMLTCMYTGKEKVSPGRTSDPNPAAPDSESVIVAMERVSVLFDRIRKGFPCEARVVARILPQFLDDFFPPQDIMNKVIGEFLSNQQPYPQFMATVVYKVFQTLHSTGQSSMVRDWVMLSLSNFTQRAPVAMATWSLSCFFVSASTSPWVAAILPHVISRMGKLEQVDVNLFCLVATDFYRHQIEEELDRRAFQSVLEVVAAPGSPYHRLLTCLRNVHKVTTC

In general, inhibition refers to the relative decrease from the control value, in per cent.

The list shows a part of the results, in another mix than the full data. Calls of active or inactive are those of the source. Rule as the data show it: active = inhibition above about 50%; inactive = the rest.

This assay addresses Huntingtin (Homo sapiens) (UniProt P42858). In words: mutant huntingtin-calmodulin interaction inhibitors – biochemical, AlphaScreen, primary screen (AID 1671202).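 Also: 0% = both proteins with DMSO and 100% = one protein alone.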 The note with it: AlphaScreen His-mHTT/GST-CaM binding, luminescence; at 15 µM; stronger effect = higher value. A general note: Bead proximity is the source of the signal in Alpha formats.
With `O=[N+]([O-])c1ccc(NCCNc2ccc([N+](=O)[O-])cc2[N+](=O)[O-])c([N+](=O)[O-])c1`, the inhibition was inactive: -6.49%.
Turning to `Cc1ccc(C(=O)NC(SC2=NCCS2)C(Cl)(Cl)Cl)cc1` (stereo not drawn), the inhibition was inactive: -5%.
Regarding `COc1cc(NC(=O)Cn2nc([N+](=O)[O-])c([N+](=O)[O-])c2C)cc([N+](=O)[O-])c1`, the inhibition was inactive: 13%.
Then `Nc1nonc1OCc1nonc1COc1nonc1N`, with inactive: -4%; and `O=C(NC(SC1=NCCS1)C(Cl)(Cl)Cl)c1ccc([N+](=O)[O-])cc1` (stereo not drawn), with inactive: 11%; and `O=C(c1cc([N+](=O)[O-])c(Cl)c([N+](=O)[O-])c1)c1cc([N+](=O)[O-])c(Cl)c([N+](=O)[O-])c1`, with active: 100%.
Consider `O=C(NC(Sc1ccc(Cl)cc1)C(Cl)(Cl)Cl)c1ccco1` (stereo not drawn), for which the inhibition was inactive: -24%.
Take `COc1ccccc1OP(=O)(Nc1ccccn1)Oc1ccccc1OC`: the inhibition was inactive: 1%.
Consider `O=[N+]([O-])c1ccc(-n2ncc3c([N+](=O)[O-])cc([N+](=O)[O-])cc32)cc1`, for which the inhibition was inactive: 26%.
Then `O=[N+]([O-])c1ccc(Nc2ccc(Nc3ccc([N+](=O)[O-])cc3[N+](=O)[O-])cc2)c([N+](=O)[O-])c1`, with inactive: 22.9%; and `Cc1c([N+](=O)[O-])c([N+](=O)[O-])nn1CC(=O)Nc1ccc([N+](=O)[O-])cc1Cl`, with inactive: 10%; and `O=C(NC1CCS(=O)(=O)C1)NP(=S)(Oc1ccccc1)Oc1ccccc1` (stereo not drawn), with inactive: -5%.
Consider `Cc1c(N=Cc2ccc([N+](=O)[O-])s2)cc([N+](=O)[O-])cc1[N+](=O)[O-]`, for which the inhibition was inactive: 34%.
As to `CCOP(=Nc1nc2ccccc2n2nnnc12)(OCC)OCC`, the inhibition was inactive: -2%.
With `COc1cc(Br)c([N+](=O)[O-])nc1[N+](=O)[O-]`, the inhibition is inactive: 36%.
As for `O=C1CCC([N+](=O)[O-])([N+](=O)[O-])CN1CCCCN1CC([N+](=O)[O-])([N+](=O)[O-])CCC1=O`, the inhibition was inactive: 1%.
As for `Cc1cc(SC(NC(=O)C(C)(C)C)C(Cl)(Cl)Cl)ncn1` (stereo not drawn), the inhibition is active: 99%.
Take `O=C(Nc1nnc(N=Cc2ccc([N+](=O)[O-])s2)s1)c1ccc([N+](=O)[O-])cc1[N+](=O)[O-]`: the inhibition was inactive: 7%.
With `O=[N+]([O-])c1cccc2n[nH]nc12`, the inhibition was inactive: -3.4%.
Then `CC(=O)NC(Sc1ccc(Cl)cc1)C(Cl)(Cl)Cl` (stereo not drawn), with inactive: -4%.
Under `N=C(N)SCC(Br)CN1C(=O)c2ccccc2C1=O` (stereo not drawn) stands inactive: -7%; under `CC(C)(c1cc([N+](=O)[O-])c(O)c([N+](=O)[O-])c1)c1cc([N+](=O)[O-])c(O)c([N+](=O)[O-])c1`, inactive: 28%.
For `C1CN(c2nonc2-[n+]2nc3nonc3[n-]2)CCO1`, the inhibition is inactive: 8.1%.
In the case of `CN1C(=O)C2C(NC(=NCCN3CCOCC3)N2C)N(C)C1=O` (stereo not drawn), the inhibition is inactive: 0%.
On to `Clc1n[nH]nc1-c1nn[nH]n1`, for which the inhibition is inactive: 0.62%.
Regarding `O=C(NC(Sc1ncccn1)C(Cl)(Cl)Cl)c1ccccc1` (stereo not drawn), the inhibition is active: 80%.
Consider `O=[N+]([O-])c1cc2c(c([N+](=O)[O-])c1)-c1c(cc([N+](=O)[O-])cc1[N+](=O)[O-])C2=Cc1ccccc1O`, for which the inhibition was active: 91%.
Under `CC1C(=O)OC(C(Cl)(Cl)Cl)N1C(O)C(Cl)(Cl)Cl` (stereo not drawn) stands inactive: -4%; under `O=C(NC(Nc1cccc([N+](=O)[O-])c1)C(Cl)(Cl)Cl)c1cc([N+](=O)[O-])cc([N+](=O)[O-])c1` (stereo not drawn), active: 74%; under `O=C(Nc1nnc(N=Cc2ccc([N+](=O)[O-])s2)s1)c1cc([N+](=O)[O-])cc([N+](=O)[O-])c1`, inactive: -4%.
Take `COC(=O)c1cc([N+](=O)[O-])[nH]n1`: the inhibition was inactive: -5.02%.
For the compound `O=[N+]([O-])c1cc(S(=O)(=O)c2cc([N+](=O)[O-])c(O)c([N+](=O)[O-])c2)cc([N+](=O)[O-])c1O`, the inhibition was inactive: 1%.
Under `Cc1nc2c(C)cccc2c2c1CC(C(Cl)Cl)S2` (stereo not drawn) stands inactive: -65%; under `O=[N+]([O-])c1ccc(-n2ncc3ccc([N+](=O)[O-])cc32)c([N+](=O)[O-])c1`, inactive: 5%.
Under `COc1ccc(N=Cc2c([N+](=O)[O-])cc([N+](=O)[O-])cc2[N+](=O)[O-])cc1` stands inactive: 28%.
As to `Nc1nonc1OCCOc1nonc1N`, the inhibition was inactive: -5.2%.
As to `O=C(Cn1cnc([N+](=O)[O-])n1)NCCO[N+](=O)[O-]`, the inhibition is inactive: 0%.
As for `O=[N+]([O-])c1ccc(Oc2c([N+](=O)[O-])cc(C(F)(F)F)cc2[N+](=O)[O-])cc1`, the inhibition is active: 70%.
Take `Cc1ccc(S(=O)(=O)N2CC(=O)SC2C(Cl)(Cl)Cl)cc1` (stereo not drawn): the inhibition is inactive: -7%.
As to `O=P(Nc1nccs1)(Oc1ccccc1)Oc1ccccc1`, the inhibition is inactive: -1%.
Take `CN(C)C(=O)NC(SC1=NCCS1)C(Cl)(Cl)Cl` (stereo not drawn): the inhibition is inactive: -2%.
Under `O=C(NC(Nc1ccc([N+](=O)[O-])cc1)C(Cl)(Cl)Cl)c1cc([N+](=O)[O-])cc([N+](=O)[O-])c1` (stereo not drawn) stands active: 98%; under `Cc1cc(C)nc(SC(NC(=O)c2ccccc2)C(Cl)(Cl)Cl)n1` (stereo not drawn), active: 54%.
Under `O=[N+]([O-])c1ccc(C(O)CNc2c([N+](=O)[O-])cc(C(F)(F)F)cc2[N+](=O)[O-])cc1` (stereo not drawn) stands active: 63%; under `COc1cccc(OP(=O)(Nc2ccccn2)Oc2cccc(OC)c2)c1`, inactive: 0%; under `Cc1c(N=Cc2ccc([N+](=O)[O-])cc2)cc([N+](=O)[O-])cc1[N+](=O)[O-]`, inactive: 13%.
On to `CC1(C)SC2N(C(=O)C2(Br)Br)C1C(=O)O` (stereo not drawn), for which the inhibition is inactive: 1%.
Under `CN1CC(=O)NC1=NP(=O)(OCc1ccccc1)OCc1ccccc1` stands inactive: -1%.
